“And” between values parts separate entries of the source, which are not always exact repeats. Equal entries are not always repeated. Where two headings read alike, the source gives them in different places.
Assays:
[1] = biological target: eIF1A-RPS10 interaction in HEK293T cells (Homo sapiens, UniProt P46783+P47813); test: Proximity ligation assay (PLA); assay type: cell-based; settings: 3 h
[2] = test system: IRF7 5'UTR firefly luciferase reporter in HEK293T cells;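 also: luciferase signal corrected by a co-transfected GFP reporter for transfection efficiency, read after overnight compound exposure, with Long and Short reporters differing in 5'UTR length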
OVCAR8 = OVCAR8 viability (Cell TiterGlo); assay type: cell-based; settings: 72 h
[3] = test system: uORF-bearing 5'UTR firefly reporters in HEK293T cells; test: uORF reinitiation / leaky scanning firefly reporters; settings: for normalize to DMSO, AVE: DMSO = 1
eIF1A-RPS10 interaction = eIF1A-RPS10 interaction (Homo sapiens, UniProt P46783+P47813); test: Split-Renilla luciferase eIF1A-RPS10 interaction screen, dose-response; assay type: biochemical; settings: read-out: IC50 concentration (µM), IC50 screen; summary table
[4] = biological target: eIF1A association with the 48S complex (Oryctolagus cuniculus, UniProt P47814); test: In-vitro analysis of 48S formation in rabbit reticulocyte lysate; assay type: biochemical; settings: sucrose gradient, WB
[5] = test system: OVCAR8 cell-derived xenograft; test: Xenografts growth after 1Ais treatment in mice; assay type: in vivo
[6] = test system: luciferase reporter mRNA in HEK293T cells; test: Reporter gene mRNA levels by qPCR after 1Ais treatment; assay type: cell-based; settings: five reporter genes
[7] = test system: IRF7 5'UTR reporter mutants in HEK293T cells; test: IRF7 C+5 mutants translation (barcoded reporters, polysome vs total RNA); assay type: cell-based; settings: 20 µM
[8] = test system: CUG/GUG vs AUG start codon luciferase reporters in HEK293T cells; test: Near-cognate AUG starting codon fidelity reporter assay (GUG, CUG vs AUG); assay type: cell-based
eIF1A [9] = biological target: T1, eIF1A (Homo sapiens, UniProt P47813)
RPS10 = RPS10 (Homo sapiens, UniProt P46783)
eIF1A [10] = biological target: T1, eIF1A; remark: listed apart in the source
eIF1A without NTT = eIF1A without NTT (Homo sapiens, UniProt P47813); test: Fluorescence binding assay with NTT-truncated eIF1A
1Ais toxicity in mice = assay type: in vivo, C57 black mice; settings: for Euthanized Notes: individual animals
[11] = 8 mg/kg i.p. five times a week, 4 weeks

Sequences of proteins named here, by UniProt entry; tags and fusion partners are left off. Residues count along the entry.
UniProt P47813, whole entry: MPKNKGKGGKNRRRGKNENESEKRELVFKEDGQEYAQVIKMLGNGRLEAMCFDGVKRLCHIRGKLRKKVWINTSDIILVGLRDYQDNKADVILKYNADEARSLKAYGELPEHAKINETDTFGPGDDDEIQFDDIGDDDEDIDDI
UniProt P47813, 31-144 limits assumed: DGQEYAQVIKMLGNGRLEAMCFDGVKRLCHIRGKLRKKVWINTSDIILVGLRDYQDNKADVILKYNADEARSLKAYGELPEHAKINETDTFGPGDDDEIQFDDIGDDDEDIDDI
UniProt P47814, whole entry: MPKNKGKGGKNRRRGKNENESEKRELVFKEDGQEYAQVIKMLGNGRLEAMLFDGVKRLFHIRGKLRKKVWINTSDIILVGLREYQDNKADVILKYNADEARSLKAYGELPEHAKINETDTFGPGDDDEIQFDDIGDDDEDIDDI

## O=C1c2ccccc2NC(c2cc(O)c(O)c(Cl)c2)N1c1ccccc1 (centres unmarked) [1A-8214]
[1]
  RPS10-eIF1A PLA interaction signal: diminished the RPS10-eIF1A interaction signal to almost background levels
[2]
  IRF7 5'UTR reporter translation: selectively decreased translation from IRF7 5'UTR
[2]; 1/Result, relative to DMSO, 20 µM
  Reference vs IRF7 (Final data, Fig. 1E): 2.956
[2]; Short reporter, 20 µM, individual replicates, outliers excluded, DMSO = 1, listed as 8214
  SHORT (summary - All), normalized to DMSO: 0.75 and 1.70
OVCAR8; 0.5 uM
  Viability normalized to 0 conc.: 98.7%
  Viability summary (raw signal): 82379.5
OVCAR8; 1 uM (first line)
  Viability normalized to 0 conc.: 104%
  Viability summary (raw signal): 87182
OVCAR8; 1 uM (second line, after 0.5)
  Viability normalized to 0 conc.: 102%
  Viability summary (raw signal): 85137.8
OVCAR8; 2.5 uM
  Viability normalized to 0 conc.: 95.3%
  Viability summary (raw signal): 79568.5
OVCAR8; 5 uM
  Viability normalized to 0 conc.: 79.4%
  Viability summary (raw signal): 66246.8
OVCAR8; 10 uM
  Viability normalized to 0 conc.: 55.2%
  Viability summary (raw signal): 46083
OVCAR8; 20 uM
  Viability normalized to 0 conc.: 28.8%
  Viability summary (raw signal): 24026
OVCAR8; refreshed every 24 h
  OVCAR8 cell viability: reduced OVCAR8 cell viability
[3]; 20uM (1Ai-5175 at 5uM), overnight
  effect on uORF / leaky scanning reporters: more strongly inhibiting the activity of 5'UTR bearing uORF with short re-initiation distance
[3]; 46 leaky reporter, average of biological repeats
  normalized to DMSO, 46 leaky, average: 0.798
[3]; -46 reporter, average of biological repeats
  normalized to DMSO, -46, average: 0.564
[3]; refference reporter, average of biological repeats
  normalized to DMSO, refference, average: 0.983
[3]; reporter 46, experiment 03.03.24
  normalize to DMSO, AVE: 0.3963
[3]; reporter 46, experiment 28.2.24
  normalize to DMSO, AVE: 0.5635
[3]; reporter 46 leaky, experiment 03.03.24
  normalize to DMSO, AVE: 0.8395
[3]; reporter 46 leaky, experiment 28.2.24
  normalize to DMSO, AVE: 0.666
[3]; reporter refference, experiment 28.2.24
  normalize to DMSO, AVE: 1.1713
[3]; uORF to main ORF distance extended by 49 nt
  inhibitory effect with extended (long) reinitiation distance: retained
eIF1A-RPS10 interaction
  IC50: 17 µM
[4]
  eIF1A association with the 48S: found mostly in the top fractions of the gradient
[5]; [11]
  treatment-specific side effects in xenograft mice: did not seem to suffer from any treatment-specific side effects
  tumor size and weight: clear reduction in tumor size and weight
[5]; group average
  Weight of tumor, average: 0.3281
[5]; t.test vs DMSO
  Weight of tumor, t.test: 0.01946
[6]
  effect on reporter mRNA levels: did not exhibit any apparent effect on the mRNA levels
[7]
  inhibitory effect on IRF7-Kozak/C5 compared to IRF7-Kozak: moderately yet significantly increased
[8]
  near-cognate start codon translation: increased translation from near-cognate AUG starting codons
[8]; CUG start codon reporter relative to AUG reporter (AUG = 100), compound at 20uM (summary head), single-experiment calculation
  CUG vs AUG (%): 10.3613%
[8]; GUG start codon reporter relative to AUG reporter (AUG = 100), compound at 20uM (summary head), single-experiment calculation
  GUG vs AUG (%): 2.395%
[8]; NUG experiment
  average CUG and GUG: 9.7574
[8]; NUG experiment, CUG vs AUG reporter
  CUG Average: 16.2895
[8]; NUG experiment, GUG vs AUG reporter
  GUG Average: 3.225
[8]; compound at 20uM, summary average of repeats, DMSO control average […]
  GUG vs AUG (%) Average: 3.23%
eIF1A [9]; 4M Urea
  MST binding to denatured eIF1A: no binding was detected when eIF1A was denatured
eIF1A [9]; native eIF1A
  MST binding to eIF1A compared with fluorescence assay: The binding curves and IC-50 were similar
RPS10
  binding of RPS10: binds both eIF1A and RPS10
RPS10; read-out: IC50 (line under RPS10 binding data)
  IC50: 10 µM
RPS10; read-out: IC50 concentration (µM), RPS10, summary table, fluorescence binding assay
  IC50: 10 µM
RPS10; read-out: RPS10 IC50
  IC50: 10 µM
eIF1A [10]
  binding of eIF1A: binds both eIF1A and RPS10
eIF1A [10]; read-out: IC50 (eIF1A titration block), eIF1A, from the titration data
  IC50: 37.4 µM
eIF1A [10]; read-out: IC50 concentration (µM), WT eIF1A, summary table, fluorescence binding assay
  IC50: 37.4 µM
eIF1A without NTT
  binding to NTT-truncated eIF1A: no binding
eIF1A without NTT; eIF1A without NTT
  NTT truncation IC50: No binding
eIF1A without NTT; summary table, fluorescence binding assay
  IC50 concentration (µM), NTT truncation: No binding
1Ais toxicity in mice; group 4
  Euthanized Notes: 1/4 Spleen dark red
1Ais toxicity in mice; group 8
  Euthanized Notes: 1/2 Spleen dark red
1Ais toxicity in mice; up to 8 mg/kg five times a week for 3 weeks
  toxicity in mice (well-being, weight): no apparent toxicity

— paper PMC12216609, “Inhibitors of eIF1A-ribosome interaction unveil uORF-dependent regulation of translation initiation and antitumor and antiviral effects” (The EMBO Journal, 2025)
